{"source": "PubChem BioAssay AID743416", "about": "(Broad Institute, 2014)", "test": "toxicity toward HepG2 liver cells – cell-based, plate reader, cherry-pick, antagonist series, cytotoxicity control, dose response (AID 743416);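 also: 0% = neutral control wells and -100% = positive control wells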", "details": "at 26 µM (top of the series)", "note": "The entries are a selection whose mix differs from that of the whole data set. Measured potencies and affinities stand elsewhere. Activity calls are given as the source filed them. No rule for the calls is given here."}
{"smiles": "COc1cccc(C(c2nnnn2C2CCCCC2)N2CCC(n3c(=O)[nH]c4ccccc43)CC2)c1OC", "note": "(stereo unspecified)", "values": [{"measurement": "activity change, negative = cytotoxicity", "value": "inactive: -5.22%"}]}
